Target: T1, surface DR5 on human tumor cells (Homo sapiens, UniProt O14763)
T1 construct: Death receptor-5 (DR5), endogenous on tumor cells; also called native DR5; cell surface DR5; source: endogenous, on cultured human tumor cells (MDA-MB-436, MDA-MB-231, OVCAR-3)
Assay: co-IP; native immunoprecipitation: cells treated with IgG1 DR5 agonist antibody (10, 50 or 500nM), lysed, anti-human IgG1-Fc beads 2 hr at 4°C, DR5 immunoblot
Settings: one partner purified

B1: AMG655 (antibody, V domains shown)
VH: QVQLQESGPGLVKPSQTLSLTCTVSGGSISSGDYFWSWIRQLPGKGLEWIGHIHNSGTTYYNPSLKSRVTISVDTSKKQFSLRLSSVTAADTAVYYCARDRGGDYYYGMDVWGQGTTVTVSS
VL: EIVLTQSPGTLSLSPGERATLSCRASQGISRSYLAWYQQKPGQAPSLLIYGASSRATGIPDRFSGSGSGTDFTLTISRLEPEDFAVYYCQQFGSSPWTFGQGTKVEIK
notes: IgG1; also called conatumumab; source: FreeStyle CHO-S, transfected, purified (protein A)
B1: binds.
